Values quoted from earlier work, collected in patent publication US12522615B2, “Macrocyclic compounds and derivatives as EGFR inhibitors” (Boehringer Ingelheim International GmbH, priority 2019, dated 2026).

Test system: EGFR M+ NSCLC patients
Details: EGFR M+ NSCLC patients treated in 1st line; cited from earlier work

## COc1cc2ncnc(Nc3ccc(F)c(Cl)c3)c2cc1OCCCN1CCOCC1 [gefitinib]
  objective response rate: 60-85%
